# Measured affinities in a library of Ab-14 light chain variants

Source: Li et al. 2023 (doi:10.1038/s41467-023-39022-2), MIT Lincoln Laboratory and A-Alpha Bio; data file from the FLAb repository.

Target: peptide PDVDLGDISGINAS, taken from heptad repeat 2 (HR2) of SARS-CoV-2 spike.

Ab-14 is the parent antibody, in scFv form: VH, then a (GGGGS)3 linker, then VL. The heavy chain is unchanged in all variants.
VH: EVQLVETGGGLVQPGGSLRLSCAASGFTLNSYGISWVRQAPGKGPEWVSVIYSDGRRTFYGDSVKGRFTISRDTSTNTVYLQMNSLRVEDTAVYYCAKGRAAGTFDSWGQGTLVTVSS
VL: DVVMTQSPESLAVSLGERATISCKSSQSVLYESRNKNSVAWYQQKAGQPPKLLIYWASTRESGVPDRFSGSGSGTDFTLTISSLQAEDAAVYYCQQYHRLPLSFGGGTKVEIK

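The parent was found by panning a naive human phage display library on the peptide. Designed CDR sequences, proposed from the first random library and measured here. Several design methods are mixed in this list. AlphaSeq pools MATa yeast showing the antibodies with MATalpha yeast showing the peptide. Binding brings cells together so that they mate, and sequencing counts the barcode pairs among the diploids. Each replicate has its own calibration line, from reference interactions of the BCL2 family. Each pool was mated in six replicate cultures.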

Each variant is given by its three light chain CDRs, as the data file delimits them; those of the parent are KSSQSVLYESRNKNSVA, WASTRES, QQYHRLPLS. Affinities are written as log10 Kd with Kd in nM; a lower number is a better binder. Averages over replicates are reported, and they cover detected replicates only. "nd" marks a missing value. The strain was present, yet no cells mated with the target were sequenced in any replicate, which points to weak or no binding. Values of this round are not directly comparable with the first-round values of the same sequences.

CDR-L1,CDR-L2,CDR-L3,"mean, log10 nM",replicates with signal,control signals
KISQSVLFEWRNKNSVA,DASTRES,QQYHRLPLS,-0.01,6/6,2/18
KLYQSTVIESFNKNNVA,EMSTRES,QSYDRLPLS,1.35,6/6,2/18
KLREVQHVETKQKNNVA,DNDTREY,QDYYRLPLS,3.06,1/6,0/18
RLMGWGADQIQHANSVA,DRDEVDM,QQYAHLPLS,1.73,4/6,1/18
KLPQSNLYESRNKNSVA,NASTRES,QQYHRLPLS,-0.15,6/6,2/18
KSEQSVLYESRNKNSVA,HASTRED,QQYHQLPLS,0.23,6/6,1/18
KLSQSVLMESRNKNNVA,WASTREE,QQYHRLPLS,-0.28,6/6,1/18
KSSQSVGYEARNKNSVA,WASTRES,QQYHRLPLS,1.96,2/6,1/18
KSSISYLYESRNSNSVA,EASTRES,QQYHRLPLS,0.11,6/6,1/18
KSSQSVLYESRNKNSVA,RVSTRES,QWYHRLPLS,nd,0/6,0/18
TISQSAHMESHNKNNVA,DLNLRGQ,QQYDRLPLS,-0.20,4/6,0/18
KMSQSVLYEDRNKNSVA,NASTRES,QQYHRLPLS,-0.32,6/6,2/18
KSSQHVLYESRNDNSVA,NASTRES,QQYHRLPLS,0.27,6/6,0/18
MMPQMFEGLSTSKNPVA,QVSTREE,QQYHRLPLS,0.18,6/6,0/18
KQSQSVLMESRNSNSVA,DASTRES,QQYHRLPLS,0.07,6/6,1/18
KLSMTHGMESINRNSVA,ELVTRMS,QQYNRLPLS,0.67,6/6,0/18
MFSQLIMYGSRNYNSVA,QASTRES,QQYDRLPLI,1.57,3/6,0/18
KFSQSHLYESRNKNSVA,NASQRES,QQYHRLPLS,-0.08,6/6,0/18
KLSQVTEYEQHNRDNVA,DLTTRGR,QDYHRLPLS,0.35,6/6,0/18
KLYQSVLYESRNKNSVA,NASYRES,QQYHRLPLS,0.45,6/6,1/18
TLMHHQDYGGEIKKSIA,NAIIKEE,QQYSRLPLA,0.70,6/6,0/18
KSSQSVLYEDENKNSVA,WASTRES,QQYHRLPLS,1.57,6/6,0/18
KLSFGNLYESRNQNSVA,EASTRCQ,QQYHRLPLS,0.01,6/6,0/18
TLYGLSNSMSINKDSVA,EMTTRED,QQYDRLPLI,2.23,1/6,0/18
MITEGQLGENKNSSNIA,SQNIKTD,QQYQRLPFV,0.89,6/6,1/18
KLMQGVLYESRNKNSVA,GASTRES,QQYHRLPLS,-0.75,6/6,1/18
VLSASELYEDRPKNSVA,NASTRMQ,QQYHRLPLS,-0.14,6/6,3/18
SMIPFDNQIMKGTNNIA,HTSVRAS,QQYMRLPFV,0.08,6/6,0/18
TMNHELIQDDPMYNNVA,DGSLKTA,QQYYRLPLS,0.81,6/6,1/18
KLQQSQLYESRNQNSVA,QASQREV,QQYHRLPLS,-0.33,6/6,2/18
KIGMTLNQLLHKKNNVA,DLVERET,QQYFRLPLS,0.46,6/6,0/18
KNSQSVDFESRNKNSVA,DASTRES,QQYHRLPLS,-0.27,6/6,1/18
KLSQSVEMESRNKNSVA,EASTRES,QQYHRLPLS,-0.23,6/6,0/18
KLSQSQLYDSRNKNSVA,QAHHREV,QQYHRLPLS,0.37,6/6,4/18
KFQQSQLYEKRNQNSVA,SASYRLS,QQYHRLPLS,1.03,6/6,0/18
KAQAGDGYESRNKNSVA,QGSKRES,QQYHRLPLS,0.75,6/6,1/18
KQSQSVLYESRNKNSVA,DASTRYS,QQYHRLPLS,-0.81,6/6,0/18
KIEWYSQDNRLTISAIA,EASTIYQ,QQYGHLPLS,nd,0/6,0/18
KLSQSVLYESMNKNSVA,EASTRES,QQYHRLPLS,0.65,6/6,0/18
KSSQSVLYESRNKNSVA,HARTRES,QQCERLPLS,nd,0/6,0/18
MISQLMNLGQFAINSVA,QATIRNS,QQYDRLPLA,2.23,6/6,2/18
QINMEMYHDLNDAQNVA,DAMTEIK,QQYNRLPLS,0.25,6/6,1/18
KILQSQEYESRNKNSVA,HASTRED,QQYHCLPLS,1.46,6/6,2/18
KLWGRCMDEELINYSIA,NGRLAVQ,QQYDRLPLS,1.01,6/6,0/18
MMSQVTGQGMRHRNNVA,QTSTREP,QQYDRLPLV,1.11,6/6,1/18
SLSPFMDTDANKYDSVA,NTANIDI,QQYDRLPLS,2.04,5/6,1/18
KLMGSMMYEQRMKNSVA,QASTRMS,QQYHRLPLS,0.56,6/6,0/18
KSSQSVLYESRNKNSVA,QASTRFS,QQYHRLPLS,0.80,6/6,0/18
KFSQSVLYESRNKNSVA,GASTREQ,QQYHRLPLS,-0.41,6/6,1/18
KLSQSFLYESRNKNSVA,GASTRES,YQYHRLTLS,nd,0/6,0/18
QLQQVQQEDTIGEYNVA,HAEVSGR,QQYSQLPLI,2.68,1/6,0/18
KLSMSVMMWSRNKNSVA,SANTREE,QQYHRLPLS,-0.05,6/6,3/18
KLDQWVEMGSRNKNSVA,SASQRFS,QQYHRLPLS,0.42,6/6,0/18
KSSQSQLYESGNKNSVA,HASTRED,QQYHRLPLS,0.12,6/6,0/18
KQSQSFLYESRNSNSVA,DASQRED,QDYHRLPLS,0.26,6/6,0/18
MISQLMNAGQFAINSVA,QAEIRNN,QQYDRLPLA,1.39,4/6,0/18
KLSLFYRVETVQKNSVA,DNSTRES,QDYDRLPLS,2.75,3/6,0/18
KLSQSWLYESRNKNSVA,NASQRER,QQYHRLPLS,0.74,6/6,0/18
HITMGMYVMGRHNSSIA,QAEERAK,QQYDRLPLM,1.61,4/6,0/18
KISQSALYESLNKNSVA,WASTRED,QQYHRLPLS,0.86,6/6,3/18
KSSQSVLYQSRNQNSVA,WASKRES,QQGHRLPLS,nd,0/6,0/18
KLSQQDEYQSRNKNSVA,NASTRYS,QQYHRLPLS,-0.60,6/6,0/18
KVSQSVLMLQRNKNSVA,DNSTSGS,QQYHRLPLS,2.67,4/6,0/18
KLSQSVLYESRNKNSVA,GASTRES,QQYHRLPLW,-0.23,6/6,1/18
KLSWKSLYGETRWMAIA,NTKVRNA,QQYFRLPLQ,1.39,5/6,1/18
MVSQLMMWGLHAKNSIA,EAVTRYN,QQYDRLPLF,2.13,2/6,0/18
KLPQSMEYESRMKQSVA,AASTRES,QQYHRLPLS,0.50,6/6,1/18
KLSASVGYEDRNKNSVA,WASTRES,QQYHRLPLS,0.38,6/6,1/18
KLSFLGPYEQRNKNSVA,SASTRCS,QQYHRLPLS,-0.08,6/6,1/18
KLDSQYQHGTNQKKAMA,DSSVSTQ,QQYSRLPLS,0.03,6/6,2/18
KSSQSVLYESRNKNSVA,WASTRES,EQYHRLPLS,nd,0/6,0/18
KMSQSWLYESRNKNSVA,NASQREE,QQYHRLPLS,-0.25,6/6,2/18
KVSQSFLYESRNKNSVA,GASTRES,QEYHRLPLS,0.51,6/6,1/18
TLMHHQDRQDEWKKSIA,NAIIRER,QQYSRLPLA,0.89,6/6,0/18
KLSQSVLYESRNKNSVA,DASTRES,EQYHRLPSS,1.04,6/6,2/18
TISELYNQSLGMRNNVA,NNQTRED,QQYDRLPLS,nd,0/6,0/18

The 4 strongest on average among those seen in every replicate, once more:

CDR-L1,CDR-L2,CDR-L3,"mean, log10 nM",replicates with signal,control signals
KQSQSVLYESRNKNSVA,DASTRYS,QQYHRLPLS,-0.81,6/6,0/18
KLMQGVLYESRNKNSVA,GASTRES,QQYHRLPLS,-0.75,6/6,1/18
KLSQQDEYQSRNKNSVA,NASTRYS,QQYHRLPLS,-0.60,6/6,0/18
KFSQSVLYESRNKNSVA,GASTREQ,QQYHRLPLS,-0.41,6/6,1/18

In the paper, a design with two or fewer of six values counts as a poor binder. As a blank, each scFv also met three strains without target: over all light chain designs, 4% of these pairings were detected, typically at 2.64 and seldom below 1.59. Also given: how often the same scFv was detected with the empty control strains. The parent sequence was in this pool as ten entries: three were never detected, three once, and four in most replicates, with averages from 0.34 to 2.37.